Literature values in paper PMC11323006, “Designing Coiled Coils for Heterochiral Complexation to Enhance Binding and Enzymatic Stability” (Biomacromolecules, 2024).

Test system: protease
Conditions: L-form of the peptide alone; cited from earlier work

Substance: Ac-(FKFE)2-NH2
- degradation upon incubation with protease: degrades within a day
